From the NIST ThermoML archive (doi:10.1016/j.jct.2015.02.007)

Assay: xn = mol fraction of the nth substance listed
Conditions: 100 kPa, Liquid; for mass density: Vibrating tube method; for speed of sound: Pulse-echo method

OCCOCCOCCOCCO [tetraethylene glycol] + O
Conditions	mass density [kg/m3]	speed of sound [m/s]
303.15 K, x1 = 0.4024	1112.21	–
303.15 K, x1 = 0.4964	1113.62	–
303.15 K, x1 = 0.5985	1114.54	–
303.15 K, x1 = 0.7018	1115.1	–
303.15 K, x1 = 0.759	1115.31	–
303.15 K, x1 = 0.8201	1115.48	–
303.15 K, x1 = 0.8353	1115.52	–
303.15 K, x1 = 0.8804	1115.62	–
303.15 K, x1 = 0.9237	1115.71	–
303.15 K, x1 = 0.9719	1115.84	–
303.15 K, x1 = 1	1115.94	–
308.15 K, x1 = 0.0003	–	1521.8
308.15 K, x1 = 0.0008	–	1524.3
308.15 K, x1 = 0.002	–	1530.1
308.15 K, x1 = 0.0035	–	1537.7
308.15 K, x1 = 0.0054	–	1546.8
308.15 K, x1 = 0.0081	–	1558.8
308.15 K, x1 = 0.0108	–	1570.2
308.15 K, x1 = 0.0116	1010.66	–
308.15 K, x1 = 0.0149	–	1586.6
308.15 K, x1 = 0.019	–	1601.5
308.15 K, x1 = 0.0203	1021.25	–
308.15 K, x1 = 0.0233	–	1615.5
308.15 K, x1 = 0.0282	–	1630.2
308.15 K, x1 = 0.0351	–	1647.9
308.15 K, x1 = 0.0406	1041.61	–
308.15 K, x1 = 0.0413	–	1661.4
308.15 K, x1 = 0.0481	–	1674
308.15 K, x1 = 0.0537	–	1682.8
308.15 K, x1 = 0.0593	–	1690.3
308.15 K, x1 = 0.0605	1056.63	–
308.15 K, x1 = 0.0659	–	1697.7
308.15 K, x1 = 0.0714	–	1702.8
308.15 K, x1 = 0.0755	–	1705.9
308.15 K, x1 = 0.0806	1068.08	–
308.15 K, x1 = 0.0811	–	1709.5
308.15 K, x1 = 0.083	–	1710.6
308.15 K, x1 = 0.0851	–	1711.6
308.15 K, x1 = 0.0898	–	1713.7
308.15 K, x1 = 0.0935	–	1715
308.15 K, x1 = 0.0994	–	1716.5
308.15 K, x1 = 0.1007	–	1716.8
308.15 K, x1 = 0.1024	1077.49	–
308.15 K, x1 = 0.109	–	1717.9
308.15 K, x1 = 0.1109	–	1718
308.15 K, x1 = 0.1132	–	1718.1
308.15 K, x1 = 0.1217	–	1717.8
308.15 K, x1 = 0.1324	–	1716.5
308.15 K, x1 = 0.1412	–	1714.8
308.15 K, x1 = 0.1511	1090.92	–
308.15 K, x1 = 0.1526	–	1711.8
308.15 K, x1 = 0.1639	–	1708.3
308.15 K, x1 = 0.1746	–	1704.7
308.15 K, x1 = 0.1895	–	1699.2
308.15 K, x1 = 0.2006	1098.36	–
308.15 K, x1 = 0.2231	–	1686
308.15 K, x1 = 0.25	1102.65	–
308.15 K, x1 = 0.2635	–	1670.6
308.15 K, x1 = 0.3012	1105.35	–
308.15 K, x1 = 0.3091	–	1655
308.15 K, x1 = 0.3628	–	1639.5
308.15 K, x1 = 0.4024	1108.26	–
308.15 K, x1 = 0.4253	–	1625
308.15 K, x1 = 0.4964	1109.67	–
308.15 K, x1 = 0.5089	–	1610.1
308.15 K, x1 = 0.5893	–	1598.9
308.15 K, x1 = 0.5985	1110.59	–
308.15 K, x1 = 0.6676	–	1589.6
308.15 K, x1 = 0.7018	1111.14	–
308.15 K, x1 = 0.759	1111.35	–
308.15 K, x1 = 0.7748	–	1579.7
308.15 K, x1 = 0.8201	1111.52	–
308.15 K, x1 = 0.8353	1111.55	–
308.15 K, x1 = 0.8613	–	1574.9
308.15 K, x1 = 0.8804	1111.65	–
308.15 K, x1 = 0.9148	–	1573.1
308.15 K, x1 = 0.9237	1111.74	–
308.15 K, x1 = 0.9645	–	1571.2
308.15 K, x1 = 0.9719	1111.87	–
308.15 K, x1 = 1	1111.96	1568.7
313.15 K, x1 = 0.0004	–	1531.6
313.15 K, x1 = 0.0009	–	1533.7
313.15 K, x1 = 0.0016	–	1537.1
313.15 K, x1 = 0.0031	–	1543.8
313.15 K, x1 = 0.0057	–	1555
313.15 K, x1 = 0.0086	–	1566.8
313.15 K, x1 = 0.0116	1008.56	–
313.15 K, x1 = 0.012	–	1579.6
313.15 K, x1 = 0.0155	–	1591.7
313.15 K, x1 = 0.0194	–	1604.4
313.15 K, x1 = 0.0203	1018.94	–
313.15 K, x1 = 0.0232	–	1615.7
313.15 K, x1 = 0.0274	–	1627.2
313.15 K, x1 = 0.0318	–	1638
313.15 K, x1 = 0.0375	–	1650.4
313.15 K, x1 = 0.0406	1038.86	–
313.15 K, x1 = 0.0422	–	1659.2
313.15 K, x1 = 0.0478	–	1668.7
313.15 K, x1 = 0.0532	–	1676.4
313.15 K, x1 = 0.0581	–	1682.5
313.15 K, x1 = 0.0605	1053.52	–
313.15 K, x1 = 0.0629	–	1687.7
313.15 K, x1 = 0.0674	–	1691.8
313.15 K, x1 = 0.073	–	1696.2
313.15 K, x1 = 0.0764	–	1698.5
313.15 K, x1 = 0.0801	–	1700.6
313.15 K, x1 = 0.0806	1064.71	–
313.15 K, x1 = 0.0846	–	1702.7
313.15 K, x1 = 0.0885	–	1704.3
313.15 K, x1 = 0.0944	–	1706
313.15 K, x1 = 0.0951	–	1706.2
313.15 K, x1 = 0.1024	1073.92	–
313.15 K, x1 = 0.1028	–	1707.5
313.15 K, x1 = 0.1088	–	1707.9
313.15 K, x1 = 0.1108	–	1707.9
313.15 K, x1 = 0.1131	–	1707.9
313.15 K, x1 = 0.1275	–	1706.5
313.15 K, x1 = 0.1415	–	1703.4
313.15 K, x1 = 0.1511	1087.11	–
313.15 K, x1 = 0.1573	–	1698.7
313.15 K, x1 = 0.1715	–	1693.6
313.15 K, x1 = 0.1914	–	1685.8
313.15 K, x1 = 0.2006	1094.46	–
313.15 K, x1 = 0.2132	–	1677
313.15 K, x1 = 0.2363	–	1667.7
313.15 K, x1 = 0.25	1098.7	–
313.15 K, x1 = 0.2621	–	1657.9
313.15 K, x1 = 0.2912	–	1647.7
313.15 K, x1 = 0.3012	1101.38	–
313.15 K, x1 = 0.3544	–	1628.8
313.15 K, x1 = 0.4024	1104.29	–
313.15 K, x1 = 0.404	–	1616.7
313.15 K, x1 = 0.4539	–	1606.3
313.15 K, x1 = 0.4964	1105.7	–
313.15 K, x1 = 0.5601	–	1588.5
313.15 K, x1 = 0.5985	1106.62	–
313.15 K, x1 = 0.6931	–	1572.9
313.15 K, x1 = 0.7018	1107.18	–
313.15 K, x1 = 0.759	1107.38	–
313.15 K, x1 = 0.8201	1107.54	–
313.15 K, x1 = 0.8353	1107.58	–
313.15 K, x1 = 0.8369	–	1562.8
313.15 K, x1 = 0.8804	1107.67	–
313.15 K, x1 = 0.9134	–	1558.7
313.15 K, x1 = 0.9237	1107.77	–
313.15 K, x1 = 0.9649	–	1555.8
313.15 K, x1 = 0.9719	1107.89	–
313.15 K, x1 = 1	–	1553.5
